The values below are quoted from earlier work in patent US6884792B2, “Bretylium compositions and kits and their use in preventing and treating cardiovascular conditions” (priority 1999, dated 2005).

The conditions of this data set: water/octanol, relative to chloride; cited from earlier work.

Consider salicylate, for which the “organic/aqueous phase distribution constant (K)” value is “greater than 1000”.
